Experimental data from US9168295B2, “Vaccine peptide combinations” (Circassia Limited, priority 2007, dated 2015).

Test system: peripheral blood basophils (PBMC) from cat allergic subjects
Experiment: Histamine release assay and histamine ELISA
Format: cell-based, human
Experimental: Histamine release from fresh peripheral whole blood from cat allergic subjects was evaluated. Peripheral blood basophils were used as a surrogate for tissue mast cells which were not practical to assay. Blood was incubated in vitro with 9 individual peptides from the sequence of the major cat allergen Fel d 1 (SEQ ID NOS: 1, 2, 3, 4, 5, 6, 7, 11 and 12). These peptides were selected as potential T cell epitopes following peptide-MHC binding assays as explained in Example 1. Additionally, responses to a preferred mixtures of a mixture of 7 peptides identified in Example 1 were analysed. The tested preferred mixture of 7 peptides consisted of the peptides of SEQ ID NOS: 1 to 7. Histamine release in response to whole cat dander allergen extract acted as a positive control.
Peripheral blood mononuclear cells (PBMC) were isolated from the heparinised blood sample obtained from the subject. PBMC's were isolated by Ficoll-Hypaque density gradient separation. […]
Assays were performed on PBMC (which contain basophils). […] Histamine concentrations were measured by ELISA.
The assay required 3×10^6 PBMC's per subject. […] Once the results had been analysed and the ELISA performed in a satisfactory manner, the samples were discarded. […]
After completion of the histamine ELISA, individual histamine levels were determined by interpolation for the standard curve generated in the ELISA assay. […]

`CC[C@H](C)[C@H](NC(=O)[C@@H](N)CCC(=O)O)C(=O)N[C@@H](CS)C(=O)N1CCC[C@H]1C(=O)N[C@@H](C)C(=O)N[C@H](C(=O)N[C@@H](CCCCN)C(=O)N[C@@H](CCCNC(=N)N)C(=O)N[C@@H](CC(=O)O)C(=O)N[C@H](C(=O)N[C@@H](CC(=O)O)C(=O)N[C@@H](CC(C)C)C(=O)N[C@@H](Cc1ccccc1)C(=O)N[C@@H](CC(C)C)C(=O)N[C@H](C(=O)NCC(=O)N[C@H](C(=O)O)[C@@H](C)O)[C@@H](C)O)C(C)C)C(C)C` [MLA01, EICPAVKRDVDLFLTGT] was tested, and the “number of individuals in whom histamine release was detected” value was 4.
